pIC50: −log10 of the molar value. Where two headings read alike, the source gives them in different places.
Assays:
Pfeiffer cells = experiment: Cell proliferation test (cell counting kit-8, 6 days); format: cell-based; conditions: Homo sapiens, 144 h, 6 days' growth
Procedure: Cells were harvested by centrifuge and densities were determined using a CounterStar cell counter. Appropriate number of cells were plated in a 96-well culture plate and incubated overnight. Compounds to be tested were 1:3 diluted for 8 gradient points and added into corresponding wells. After 6 days' growth, cell counting kit-8 (Dojindo) was used to detect cell viability and absorbance values were read on Tecan infinite pro.

Sequences of proteins named here, by UniProt entry; tags and fusion partners are left off.
UniProt Q15910, whole entry Y641F: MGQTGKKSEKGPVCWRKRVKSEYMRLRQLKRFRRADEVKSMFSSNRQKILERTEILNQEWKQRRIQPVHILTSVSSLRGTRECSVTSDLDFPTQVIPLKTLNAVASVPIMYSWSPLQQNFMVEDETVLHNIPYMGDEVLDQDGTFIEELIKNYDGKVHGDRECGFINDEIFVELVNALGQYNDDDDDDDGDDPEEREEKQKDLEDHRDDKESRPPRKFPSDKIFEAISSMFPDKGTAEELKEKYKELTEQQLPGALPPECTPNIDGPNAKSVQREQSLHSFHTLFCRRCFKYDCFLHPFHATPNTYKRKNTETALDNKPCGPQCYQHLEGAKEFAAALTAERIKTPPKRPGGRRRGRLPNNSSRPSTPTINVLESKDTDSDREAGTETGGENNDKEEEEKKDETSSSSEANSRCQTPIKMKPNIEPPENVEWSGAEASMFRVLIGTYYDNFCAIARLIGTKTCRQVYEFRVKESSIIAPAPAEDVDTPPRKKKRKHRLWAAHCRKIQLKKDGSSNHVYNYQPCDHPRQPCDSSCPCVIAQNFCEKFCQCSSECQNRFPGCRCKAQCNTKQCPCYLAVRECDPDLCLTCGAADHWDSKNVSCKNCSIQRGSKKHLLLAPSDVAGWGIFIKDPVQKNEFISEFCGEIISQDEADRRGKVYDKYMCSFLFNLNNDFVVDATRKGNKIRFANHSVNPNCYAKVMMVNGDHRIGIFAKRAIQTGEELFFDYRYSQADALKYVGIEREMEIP

[1] = target: Recombinant PRC2 (EZH2-Y641F) (Homo sapiens, UniProt Q15910, Y641F); experiment: In vitro methyltransferase activity test (LANCE Ultra); conditions: LANCE Ultra detection, 3 hours reaction;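 note: compounds tested as an 8-point threefold dilution series, fluorescence read after 1 h detection step at room temperature, IC50 derived from a four-parameter curve fit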

Structure (SMILES)	pIC50 (Pfeiffer cells)	pIC50 ([1]; EZH2 Y641F IC50, Recombinant PRC2 (EZH2-Y641F))	pIC50 ([1]; read-out: EZH2 Y641F IC50, Recombinant PRC2 (EZH2-Y641F))
CCN(c1cc(-c2ccc(CN3CCN(C)CC3)nc2)cc2c(NCc3c(C)cc(C)[nH]c3=O)nccc12)[C@H]1CC[C@H](N(C)C)CC1 [Compound Z-52]	6.42	> 8.30	
CCN(c1cc(-c2ccc(CN3CCN(C)CC3)nc2)cc2c(NCc3c(C)cc(C)[nH]c3=O)nccc12)[C@H]1CC[C@@H](N(C)C)CC1 [Compound Z-58]			7.66
